Source: patent US7786308B2 (priority 2005, dated 2010)
Only a part of the results on these compounds is given; other tests are left out.

Chains of the proteins cited; added tags and fusions are not shown.
UniProt P11229, whole entry: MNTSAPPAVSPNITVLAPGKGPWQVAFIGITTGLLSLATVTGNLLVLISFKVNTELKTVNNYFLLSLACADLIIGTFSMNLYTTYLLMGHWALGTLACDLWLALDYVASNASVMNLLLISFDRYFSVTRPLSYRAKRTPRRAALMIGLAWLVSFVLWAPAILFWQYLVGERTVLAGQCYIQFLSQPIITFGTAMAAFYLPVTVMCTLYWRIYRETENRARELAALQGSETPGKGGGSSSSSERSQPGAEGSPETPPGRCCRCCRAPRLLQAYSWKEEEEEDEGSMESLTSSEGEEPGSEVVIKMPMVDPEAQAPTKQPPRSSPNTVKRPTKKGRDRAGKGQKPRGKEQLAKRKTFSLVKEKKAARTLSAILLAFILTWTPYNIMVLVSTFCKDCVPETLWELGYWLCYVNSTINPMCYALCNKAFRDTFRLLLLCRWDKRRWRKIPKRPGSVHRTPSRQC
UniProt P08172, whole entry: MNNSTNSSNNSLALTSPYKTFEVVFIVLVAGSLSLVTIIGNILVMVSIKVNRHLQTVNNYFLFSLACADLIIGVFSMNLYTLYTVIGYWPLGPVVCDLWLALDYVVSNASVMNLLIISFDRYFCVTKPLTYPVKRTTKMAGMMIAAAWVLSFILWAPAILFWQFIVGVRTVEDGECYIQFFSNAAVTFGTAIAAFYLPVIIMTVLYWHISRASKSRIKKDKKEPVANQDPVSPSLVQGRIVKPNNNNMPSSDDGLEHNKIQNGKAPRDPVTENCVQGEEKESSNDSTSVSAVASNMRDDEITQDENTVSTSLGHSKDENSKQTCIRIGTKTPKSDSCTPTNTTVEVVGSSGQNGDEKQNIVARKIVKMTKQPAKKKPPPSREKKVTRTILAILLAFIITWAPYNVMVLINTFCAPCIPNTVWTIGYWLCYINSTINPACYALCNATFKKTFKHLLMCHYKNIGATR
UniProt P20309, whole entry: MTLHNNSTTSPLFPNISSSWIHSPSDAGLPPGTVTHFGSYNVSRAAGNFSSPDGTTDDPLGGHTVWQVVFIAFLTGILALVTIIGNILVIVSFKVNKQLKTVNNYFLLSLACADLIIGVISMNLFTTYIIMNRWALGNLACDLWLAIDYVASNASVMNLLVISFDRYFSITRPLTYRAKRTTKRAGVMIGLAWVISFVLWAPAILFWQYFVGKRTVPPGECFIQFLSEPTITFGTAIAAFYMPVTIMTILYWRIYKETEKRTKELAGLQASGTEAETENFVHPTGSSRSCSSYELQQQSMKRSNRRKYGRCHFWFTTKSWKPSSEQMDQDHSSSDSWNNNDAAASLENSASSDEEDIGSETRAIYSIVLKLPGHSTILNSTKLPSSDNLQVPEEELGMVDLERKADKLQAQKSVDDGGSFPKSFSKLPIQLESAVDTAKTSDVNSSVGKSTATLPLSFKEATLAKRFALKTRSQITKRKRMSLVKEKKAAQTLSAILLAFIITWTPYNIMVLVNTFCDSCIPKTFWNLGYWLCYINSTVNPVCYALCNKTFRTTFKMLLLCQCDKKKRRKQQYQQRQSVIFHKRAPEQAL
UniProt P08173, whole entry: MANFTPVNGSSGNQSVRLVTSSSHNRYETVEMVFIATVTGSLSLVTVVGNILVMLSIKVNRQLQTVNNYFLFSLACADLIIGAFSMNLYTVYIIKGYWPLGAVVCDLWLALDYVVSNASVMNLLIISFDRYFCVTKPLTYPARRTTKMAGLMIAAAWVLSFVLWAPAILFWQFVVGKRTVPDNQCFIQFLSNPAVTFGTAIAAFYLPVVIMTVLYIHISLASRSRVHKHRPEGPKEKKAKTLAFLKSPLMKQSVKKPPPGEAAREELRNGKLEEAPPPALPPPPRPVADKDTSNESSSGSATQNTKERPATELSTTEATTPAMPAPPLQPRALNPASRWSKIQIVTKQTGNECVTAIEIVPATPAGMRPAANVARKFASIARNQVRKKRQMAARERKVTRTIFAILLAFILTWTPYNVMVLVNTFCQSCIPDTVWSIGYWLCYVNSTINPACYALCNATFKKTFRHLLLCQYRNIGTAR

What was measured:
Format in all cases: cell-based
Settings in all cases: 100% efficacy is the maximum response obtained with the Carbachol control
[1] = molecular target: M1 muscarinic receptor (Homo sapiens, UniProt P11229); assay: Functional mobilization of intracellular calcium (FLIPR), M1-CHO cells
[2] = molecular target: M2 muscarinic receptor (Homo sapiens, UniProt P08172); assay: Functional mobilization of intracellular calcium (FLIPR), M2-CHO cells
[3] = molecular target: M3 muscarinic receptor (Homo sapiens, UniProt P20309); assay: Functional mobilization of intracellular calcium (FLIPR), M3-CHO cells
[4] = molecular target: M4 muscarinic receptor (Homo sapiens, UniProt P08173); assay: Functional mobilization of intracellular calcium (FLIPR), M4-CHO cells

For `CC(=O)N(c1ccc(F)cc1)C1CCN(C2CC3CCC(C2)N3C(=O)OC(C)C)CC1` (stereo not shown), the “M1 Efficacy” value [1] was “++ (efficacy was calculated to be from 100% to 25%)”, the “M2 Efficacy” value [2] was “+ (efficacy was calculated to be less than 25%)” and the “M3 Efficacy” value [3] was “+ (efficacy was calculated to be less than 25%)”. For the same compound, the “M4 Efficacy” value [4] was “+ (efficacy was calculated to be less than 25%)”.
With `CCOC(=O)N1C2CCC1CC(N1CCC(N(C(=O)N(C)C)c3ccc(F)cc3)CC1)C2` (stereo not shown) the “M1 Efficacy” value [1] was “++ (efficacy was calculated to be from 100% to 25%)”, the “M2 Efficacy” value [2] was “+ (efficacy was calculated to be less than 25%)” and the “M3 Efficacy” value [3] was “+ (efficacy was calculated to be less than 25%)”. The “M4 Efficacy” value [4] was “++ (efficacy was calculated to be from 100% to 25%)”.
`CCCOC(=O)N1C2CCC1CC(N1CCC(N(C(C)=O)c3ccc(F)cc3)CC1)C2` (stereo not shown) was tested, and the “M1 Efficacy” value [1] was “++ (efficacy was calculated to be from 100% to 25%)”, the “M2 Efficacy” value [2] was “+ (efficacy was calculated to be less than 25%)” and the “M3 Efficacy” value [3] was “+ (efficacy was calculated to be less than 25%)”. For the same compound, the “M4 Efficacy” value [4] was “+ (efficacy was calculated to be less than 25%)”.
For `CCOC(=O)N1C2CCC1CC(N1CCC(N(C(C)=O)c3ccccc3)CC1)C2` (stereo not shown), the “M1 Efficacy” value [1] was “++ (efficacy was calculated to be from 100% to 25%)”, the “M2 Efficacy” value [2] was “+ (efficacy was calculated to be less than 25%)” and the “M3 Efficacy” value [3] was “+ (efficacy was calculated to be less than 25%)”. For the same compound, the “M4 Efficacy” value [4] was “++ (efficacy was calculated to be from 100% to 25%)”.
For `CC(=O)N(c1ccc(F)cc1)C1CCN(C2CC3CCC(C2)N3C(=O)c2ccccc2)CC1` (stereo not shown), the “M1 Efficacy” value [1] was “++ (efficacy was calculated to be from 100% to 25%)”, the “M2 Efficacy” value [2] was “+ (efficacy was calculated to be less than 25%)” and the “M3 Efficacy” value [3] was “+ (efficacy was calculated to be less than 25%)”. For the same compound, the “M4 Efficacy” value [4] was “+ (efficacy was calculated to be less than 25%)”.
With `COC(=O)N1C2CCC1CC(N1CCC(N(C(C)=O)c3ccc(F)cc3)CC1)C2` (stereo not shown) the “M1 Efficacy” value [1] was “++ (efficacy was calculated to be from 100% to 25%)”, the “M2 Efficacy” value [2] was “+ (efficacy was calculated to be less than 25%)” and the “M3 Efficacy” value [3] was “+ (efficacy was calculated to be less than 25%)”. The “M4 Efficacy” value [4] was “++ (efficacy was calculated to be from 100% to 25%)”.
With `CCOC(=O)N1C2CCC1CC(N1CCC(N(C(=O)C(C)C)c3ccc(F)cc3)CC1)C2` (stereo not shown) the “M1 Efficacy” value [1] was “++ (efficacy was calculated to be from 100% to 25%)”, the “M2 Efficacy” value [2] was “+ (efficacy was calculated to be less than 25%)” and the “M3 Efficacy” value [3] was “+ (efficacy was calculated to be less than 25%)”. For the same compound, the “M4 Efficacy” value [4] was “++ (efficacy was calculated to be from 100% to 25%)”.
In the case of `CCOC(=O)N1C2CCC1CC(N1CCC(N(C(C)=O)c3ccc(C)cc3)CC1)C2` (stereo not shown), the “M1 Efficacy” value [1] was “++ (efficacy was calculated to be from 100% to 25%)”, the “M2 Efficacy” value [2] was “+ (efficacy was calculated to be less than 25%)” and the “M3 Efficacy” value [3] was “++ (efficacy was calculated to be from 100% to 25%)”. For the same compound, the “M4 Efficacy” value [4] was “++ (efficacy was calculated to be from 100% to 25%)”.
For `CCOC(=O)N1C2CCC1CC(N1CCC(N(C(C)=O)c3cccc(C)c3)CC1)C2` (stereo not shown), the “M1 Efficacy” value [1] was “++ (efficacy was calculated to be from 100% to 25%)”, the “M2 Efficacy” value [2] was “+ (efficacy was calculated to be less than 25%)” and the “M3 Efficacy” value [3] was “+ (efficacy was calculated to be less than 25%)”. The “M4 Efficacy” value [4] was “++ (efficacy was calculated to be from 100% to 25%)”.
`CCOC(=O)N1C2CCC1CC(N1CCC(N(C(C)=O)c3ccccc3OC)CC1)C2` (stereo not shown) was tested, and the “M1 Efficacy” value [1] was “++ (efficacy was calculated to be from 100% to 25%)”, the “M2 Efficacy” value [2] was “+ (efficacy was calculated to be less than 25%)” and the “M3 Efficacy” value [3] was “+ (efficacy was calculated to be less than 25%)”. For the same compound, the “M4 Efficacy” value [4] was “++ (efficacy was calculated to be from 100% to 25%)”.
With `CC(=O)N(c1ccc(F)cc1)C1CCN(C2CC3CCC(C2)N3C(=O)OCCF)CC1` (stereo not shown) the “M1 Efficacy” value [1] was “++ (efficacy was calculated to be from 100% to 25%)”, the “M2 Efficacy” value [2] was “+ (efficacy was calculated to be less than 25%)” and the “M3 Efficacy” value [3] was “+ (efficacy was calculated to be less than 25%)”. The “M4 Efficacy” value [4] was “++ (efficacy was calculated to be from 100% to 25%)”.
For “N-(1-(4-(ethoxyimino)cyclohexyl)piperidin-4-yl)-N-(4-fuorophenyl)acetamide”, the “M1 Efficacy” value [1] was “++ (efficacy was calculated to be from 100% to 25%)”, the “M2 Efficacy” value [2] was “+ (efficacy was calculated to be less than 25%)” and the “M3 Efficacy” value [3] was “+ (efficacy was calculated to be less than 25%)”. For the same compound, the “M4 Efficacy” value [4] was “++ (efficacy was calculated to be from 100% to 25%)”.
In the case of `CC(=O)N(c1ccc(F)cc1)C1CCN(C2CC3CCC(C2)N3C(=O)OCC(F)F)CC1` (stereo not shown), the “M1 Efficacy” value [1] was “++ (efficacy was calculated to be from 100% to 25%)”, the “M2 Efficacy” value [2] was “+ (efficacy was calculated to be less than 25%)” and the “M3 Efficacy” value [3] was “+ (efficacy was calculated to be less than 25%)”. The “M4 Efficacy” value [4] was “+ (efficacy was calculated to be less than 25%)”.
With `CC(=O)N(c1ccc(F)cc1)C1CCN(C2CC3CCC(C3)C2)CC1` (stereo not shown) the “M1 Efficacy” value [1] was “++ (efficacy was calculated to be from 100% to 25%)”, the “M2 Efficacy” value [2] was “+ (efficacy was calculated to be less than 25%)” and the “M3 Efficacy” value [3] was “+ (efficacy was calculated to be less than 25%)”. For the same compound, the “M4 Efficacy” value [4] was “+ (efficacy was calculated to be less than 25%)”.
For `CCOC(=O)N1C2CCC1CC(N1CCC(N(C(C)=O)c3ccc(C(C)(C)C)cc3)CC1)C2` (stereo not shown), the “M1 Efficacy” value [1] was “++ (efficacy was calculated to be from 100% to 25%)”, the “M2 Efficacy” value [2] was “+ (efficacy was calculated to be less than 25%)” and the “M3 Efficacy” value [3] was “+ (efficacy was calculated to be less than 25%)”. For the same compound, the “M4 Efficacy” value [4] was “+ (efficacy was calculated to be less than 25%)”.
In the case of `CC#CCON=C1CCC(N2CCC(N(C(C)=O)c3ccc(F)cc3)CC2)CC1` (stereo not shown), the “M1 Efficacy” value [1] was “++ (efficacy was calculated to be from 100% to 25%)”, the “M2 Efficacy” value [2] was “+ (efficacy was calculated to be less than 25%)” and the “M3 Efficacy” value [3] was “+ (efficacy was calculated to be less than 25%)”. For the same compound, the “M4 Efficacy” value [4] was “++ (efficacy was calculated to be from 100% to 25%)”.
